Biological target: T1, MBL/Ficolin associated protein-1 (MAP-1) (human, UniProt P48740 20-363, N-glycosylated (shift from ~45 kDa to ~40 kDa with N-glycosidase F); two potential glycosylation sites at positions 49 and 178 of SEQ ID NO:1)
T1 construct: Signal peptide is residues 1-19; also called FAP; rMAP-1
T1 sequence: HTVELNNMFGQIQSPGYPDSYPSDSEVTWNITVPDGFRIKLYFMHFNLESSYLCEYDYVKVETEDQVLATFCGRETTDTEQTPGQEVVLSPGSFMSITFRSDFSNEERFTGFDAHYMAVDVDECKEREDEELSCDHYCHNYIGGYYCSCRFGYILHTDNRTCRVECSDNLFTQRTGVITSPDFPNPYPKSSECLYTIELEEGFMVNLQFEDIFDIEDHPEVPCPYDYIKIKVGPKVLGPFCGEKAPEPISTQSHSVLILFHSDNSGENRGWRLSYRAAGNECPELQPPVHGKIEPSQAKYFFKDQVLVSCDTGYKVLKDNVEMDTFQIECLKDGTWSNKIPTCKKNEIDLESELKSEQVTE
Test: sandwich ELISA on 100 donor sera, capture mAb 20C4, detection FCN-219
Experimental: The relative association between MAP-1 and MBL, Ficolin-2 and -3 was assessed essentially as described previously (Skjoedt et al., 2009) with the modification that the MAP-1 specific mAb 20C4 was used as capture antibody (coated at 6 μg/ml). […] The serum samples from the same 100 Danish blood donors as above were analyzed.
We analyzed the same 100 donor serum samples as used for the MAP-1 determinations and assessed the serum association levels between MAP-1 and Ficolin-2, -3 and MBL given as relative O.D. 490-650 nm (FIG. 30A). In addition we measured the serum concentration of MBL, Ficolin-2 and -3 as previously (Skjoedt et al., 2009).

B1: Ficolin-2 (other, human, UniProt Q15485 26-313, looked up)
chain: LQAADTCPEVKMVGLEGSDKLTILRGCPGLPGAPGPKGEAGTNGKRGERGPPGPPGKAGPPGPNGAPGEPQPCLTGPRTCKDLLDRGHFLSGWHTIYLPDCRPLTVLCDMDTDGGGWTVFQRRVDGSVDFYRDWATYKQGFGSRLGEFWLGNDNIHALTAQGTSELRVDLVDFEDNYQFAKYRSFKVADEAEKYNLVLGAFVEGSAGDSLTFHNNQSFSTKDQDNDLNTGNCAVMFQGAWWYKNCHVSNLNGRYLRGTHGSFANGINWKSGKGYNYSYKVSEMKVRPA
notes: Serum protein
binding result: binds

Reference: patent US20120282285A1 (RIGSHOSPITALET, published 2012)
